# Cyclic peptide permeability, from CycPeptMPDB

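The data file gives no further conditions (lipid, pH, time, direction or concentration), and values from different papers need not be comparable. The list need not hold all peptides of the study. Entries at the database's floor value (log10 P of -10) are not listed.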

PAMPA measures passive passage through an artificial lipid membrane. P is given in units of 10^-6 cm/s (from log10 values with two decimals); larger means faster passage.

Listed for CC(=O)N[C@@H]1C(=O)N2CCC[C@H]2C(=O)N(C)[C@H](CC(C)C)C(=O)N[C@@H](CC(C)C)C(=O)N[C@@H](CC(C)C)C(=O)N[C@@H](CC(C)C)C(=O)N[C@@H](C)C(=O)N[C@@H](CC(C)C)C(=O)N2CCC[C@@H]2C(=O)O[C@@H]1C: PAMPA 0.23 × 10^-6 cm/s.
Listed for CC(=O)N1CCC[C@@H]1C(=O)N(C)[C@@H](CC(C)C)C(=O)N[C@@H]1C(=O)N[C@@H](CC(C)C)C(=O)N(C)[C@H](CC(C)C)C(=O)N(C)[C@H](CC(C)C)C(=O)N(C)[C@@H](C)C(=O)N[C@@H](CC(C)C)C(=O)N2CCC[C@@H]2C(=O)O[C@@H]1C: PAMPA 4.9 × 10^-6 cm/s.
Listed for CC(=O)N1CCC[C@H]1C(=O)N(C)[C@@H](CC(C)C)C(=O)N[C@@H]1C(=O)N[C@H](CC(C)C)C(=O)N(C)[C@@H](CC(C)C)C(=O)N(C)[C@H](CC(C)C)C(=O)N[C@@H](C)C(=O)N[C@H](CC(C)C)C(=O)N2CCC[C@H]2C(=O)O[C@@H]1C: PAMPA 5.1 × 10^-6 cm/s.
Listed for CC(=O)N1CCC[C@H]1C(=O)N(C)[C@@H](CC(C)C)C(=O)N[C@@H]1C(=O)N(C)[C@H](CC(C)C)C(=O)N[C@@H](CC(C)C)C(=O)N(C)[C@H](CC(C)C)C(=O)N(C)[C@H](C)C(=O)N[C@@H](CC(C)C)C(=O)N2CCC[C@@H]2C(=O)O[C@@H]1C: PAMPA 2.6 × 10^-6 cm/s.
Listed for CC(=O)N1CCC[C@H]1C(=O)N(C)[C@@H](CC(C)C)C(=O)N[C@@H]1C(=O)N[C@@H](CC(C)C)C(=O)N[C@@H](CC(C)C)C(=O)N[C@@H](CC(C)C)C(=O)N(C)[C@@H](C)C(=O)N[C@@H](CC(C)C)C(=O)N2CCC[C@H]2C(=O)O[C@@H]1C: PAMPA 0.15 × 10^-6 cm/s.
Listed for CC(=O)N1CCC[C@H]1C(=O)N(C)[C@H](CC(C)C)C(=O)N[C@@H]1C(=O)N[C@@H](CC(C)C)C(=O)N[C@@H](CC(C)C)C(=O)N[C@@H](CC(C)C)C(=O)N[C@@H](C)C(=O)N[C@H](CC(C)C)C(=O)N2CCC[C@@H]2C(=O)O[C@@H]1C: PAMPA 0.021 × 10^-6 cm/s.
Listed for CC(=O)N1CCC[C@H]1C(=O)N(C)[C@@H](CC(C)C)C(=O)N[C@@H]1C(=O)N(C)[C@H](CC(C)C)C(=O)N[C@@H](CC(C)C)C(=O)N(C)[C@H](CC(C)C)C(=O)N(C)[C@@H](C)C(=O)N[C@@H](CC(C)C)C(=O)N2CCC[C@@H]2C(=O)O[C@@H]1C: PAMPA 5.6 × 10^-6 cm/s.
Listed for CC(=O)N1CCC[C@@H]1C(=O)N(C)[C@H](CC(C)C)C(=O)N[C@@H]1C(=O)N(C)[C@H](CC(C)C)C(=O)N(C)[C@H](CC(C)C)C(=O)N(C)[C@@H](CC(C)C)C(=O)N(C)[C@@H](C)C(=O)N[C@@H](CC(C)C)C(=O)N2CCC[C@@H]2C(=O)O[C@@H]1C: PAMPA 2.8 × 10^-6 cm/s.
Listed for CC(=O)N1CCC[C@@H]1C(=O)N(C)[C@H](CC(C)C)C(=O)N[C@@H]1C(=O)N[C@H](CC(C)C)C(=O)N(C)[C@@H](CC(C)C)C(=O)N(C)[C@@H](CC(C)C)C(=O)N[C@@H](C)C(=O)N[C@@H](CC(C)C)C(=O)N2CCC[C@@H]2C(=O)O[C@@H]1C: PAMPA 5 × 10^-6 cm/s.
Listed for CC(=O)N1CCC[C@H]1C(=O)N(C)[C@@H](CC(C)C)C(=O)N[C@@H]1C(=O)N[C@@H](CC(C)C)C(=O)N(C)[C@H](CC(C)C)C(=O)N(C)[C@@H](CC(C)C)C(=O)N(C)[C@H](C)C(=O)N[C@H](CC(C)C)C(=O)N2CCC[C@H]2C(=O)O[C@@H]1C: PAMPA 1.5 × 10^-6 cm/s.
Listed for CC(=O)N1CCC[C@H]1C(=O)N[C@@H]1C(=O)N(C)[C@H](CC(C)C)C(=O)N[C@H](CC(C)C)C(=O)N(C)[C@@H](CC(C)C)C(=O)N[C@@H](CC(C)C)C(=O)N(C)[C@H](C)C(=O)N[C@@H](CC(C)C)C(=O)N2CCC[C@@H]2C(=O)O[C@@H]1C: PAMPA 2.8 × 10^-6 cm/s.
Listed for CC(=O)N1CCC[C@H]1C(=O)N(C)[C@H](CC(C)C)C(=O)N[C@@H]1C(=O)N(C)[C@@H](CC(C)C)C(=O)N[C@@H](CC(C)C)C(=O)N(C)[C@@H](CC(C)C)C(=O)N(C)[C@@H](C)C(=O)N[C@@H](CC(C)C)C(=O)N2CCC[C@@H]2C(=O)O[C@@H]1C: PAMPA 5 × 10^-6 cm/s.
Listed for CC(=O)N1CCC[C@H]1C(=O)N(C)[C@H](CC(C)C)C(=O)N[C@@H]1C(=O)N[C@@H](CC(C)C)C(=O)N(C)[C@@H](CC(C)C)C(=O)N[C@@H](CC(C)C)C(=O)N(C)[C@H](C)C(=O)N[C@H](CC(C)C)C(=O)N2CCC[C@@H]2C(=O)O[C@@H]1C: PAMPA 4.5 × 10^-6 cm/s.
Listed for CC(=O)N1CCC[C@H]1C(=O)N(C)[C@@H](CC(C)C)C(=O)N[C@@H]1C(=O)N[C@H](CC(C)C)C(=O)N[C@H](CC(C)C)C(=O)N(C)[C@H](CC(C)C)C(=O)N(C)[C@@H](C)C(=O)N[C@H](CC(C)C)C(=O)N2CCC[C@H]2C(=O)O[C@@H]1C: PAMPA 3 × 10^-6 cm/s.
Listed for CC(=O)N1CCC[C@H]1C(=O)N(C)[C@@H](CC(C)C)C(=O)N[C@@H]1C(=O)N[C@@H](CC(C)C)C(=O)N(C)[C@@H](CC(C)C)C(=O)N(C)[C@@H](CC(C)C)C(=O)N(C)[C@H](C)C(=O)N[C@@H](CC(C)C)C(=O)N2CCC[C@H]2C(=O)O[C@@H]1C: PAMPA 0.87 × 10^-6 cm/s.
Listed for CC(=O)N1CCC[C@H]1C(=O)N(C)[C@@H](CC(C)C)C(=O)N[C@@H]1C(=O)N[C@H](CC(C)C)C(=O)N(C)[C@H](CC(C)C)C(=O)N(C)[C@@H](CC(C)C)C(=O)N(C)[C@@H](C)C(=O)N[C@@H](CC(C)C)C(=O)N2CCC[C@H]2C(=O)O[C@@H]1C: PAMPA 4.1 × 10^-6 cm/s.
Listed for CC(=O)N1CCC[C@H]1C(=O)N[C@@H]1C(=O)N[C@H](CC(C)C)C(=O)N(C)[C@H](CC(C)C)C(=O)N(C)[C@H](CC(C)C)C(=O)N(C)[C@@H](CC(C)C)C(=O)N(C)[C@@H](C)C(=O)N[C@@H](CC(C)C)C(=O)N2CCC[C@@H]2C(=O)O[C@@H]1C: PAMPA 7.6 × 10^-6 cm/s.
Listed for CC(=O)N1CCC[C@@H]1C(=O)N(C)[C@@H](CC(C)C)C(=O)N[C@@H]1C(=O)N[C@H](CC(C)C)C(=O)N[C@@H](CC(C)C)C(=O)N(C)[C@@H](CC(C)C)C(=O)N[C@@H](C)C(=O)N[C@@H](CC(C)C)C(=O)N2CCC[C@@H]2C(=O)O[C@@H]1C: PAMPA 4.1 × 10^-6 cm/s.
Listed for CC(=O)N1CCC[C@@H]1C(=O)N(C)[C@@H](CC(C)C)C(=O)N[C@@H]1C(=O)N[C@@H](CC(C)C)C(=O)N(C)[C@H](CC(C)C)C(=O)N[C@H](CC(C)C)C(=O)N(C)[C@H](C)C(=O)N[C@H](CC(C)C)C(=O)N2CCC[C@H]2C(=O)O[C@@H]1C: PAMPA 0.89 × 10^-6 cm/s.
Listed for CC(=O)N1CCC[C@H]1C(=O)N(C)[C@@H](CC(C)C)C(=O)N[C@@H]1C(=O)N(C)[C@@H](CC(C)C)C(=O)N[C@@H](CC(C)C)C(=O)N[C@@H](CC(C)C)C(=O)N[C@@H](C)C(=O)N[C@H](CC(C)C)C(=O)N2CCC[C@@H]2C(=O)O[C@@H]1C: PAMPA 0.001 × 10^-6 cm/s.
Listed for CC(=O)N1CCC[C@@H]1C(=O)N(C)[C@@H](CC(C)C)C(=O)N[C@@H]1C(=O)N(C)[C@@H](CC(C)C)C(=O)N(C)[C@@H](CC(C)C)C(=O)N[C@@H](CC(C)C)C(=O)N[C@@H](C)C(=O)N[C@@H](CC(C)C)C(=O)N2CCC[C@@H]2C(=O)O[C@@H]1C: PAMPA 0.25 × 10^-6 cm/s.
Listed for CC(=O)N1CCC[C@H]1C(=O)N(C)[C@H](CC(C)C)C(=O)N[C@@H]1C(=O)N[C@H](CC(C)C)C(=O)N[C@H](CC(C)C)C(=O)N(C)[C@H](CC(C)C)C(=O)N[C@H](C)C(=O)N[C@H](CC(C)C)C(=O)N2CCC[C@@H]2C(=O)O[C@@H]1C: PAMPA 0.34 × 10^-6 cm/s.

Excerpt, the opening 2 entries:

For CC(=O)N[C@@H]1C(=O)N2CCC[C@H]2C(=O)N(C)[C@H](CC(C)C)C(=O)N[C@@H](CC(C)C)C(=O)N[C@@H](CC(C)C)C(=O)N[C@@H](CC(C)C)C(=O)N[C@@H](C)C(=O)N[C@@H](CC(C)C)C(=O)N2CCC[C@@H]2C(=O)O[C@@H]1C the data give PAMPA 0.23 × 10^-6 cm/s.
For CC(=O)N1CCC[C@@H]1C(=O)N(C)[C@@H](CC(C)C)C(=O)N[C@@H]1C(=O)N[C@@H](CC(C)C)C(=O)N(C)[C@H](CC(C)C)C(=O)N(C)[C@H](CC(C)C)C(=O)N(C)[C@@H](C)C(=O)N[C@@H](CC(C)C)C(=O)N2CCC[C@@H]2C(=O)O[C@@H]1C the data give PAMPA 4.9 × 10^-6 cm/s.

Collected by the curators of CycPeptMPDB (Li et al. 2023) from Kelly et al. 2021, doi:10.1021/jacs.0c06115.